In PubChem BioAssay AID1512 (Sanford-Burnham Center for Chemical Genomics, 2009):

Molecular target: placental alkaline phosphatase (ALPP), human
Experiment: human placental alkaline phosphatase inhibition – biochemical, luminescence, confirmation (AID 1512)
Settings: purified PLAP enzyme, luminescent substrate read-out

IC50, active:
O=C(Cn1cnc(Br)c1)c1ccc(O)c(O)c1 15.8 µM, O=C(Cn1cnnc1)c1ccc(O)c(O)c1 13.4 µM, Cc1nc2ccccc2n1CC(=O)c1ccc(O)c(O)c1 2.51 µM
